Assay: Lapatinib pharmacokinetics in rat blood plasma (BP), HPLC-MS/MS, noncompartmental analysis
Assay type: in vivo, rats
Experimental: This study was conducted on rats, which are a promising model to predict P-gp-based drug-drug interactions at the human BBB [15]. The animals were allowed to acclimate for one week before the beginning of the experiments. Adult male Wistar-strain rats (weight 470–525 g) were used in the study. The animals were maintained under standard breeding conditions with a 12/12 h light-dark cycle (lights on at 6.00 a.m., lights off at 6.00 p.m.) at constant room temperature (23 ± 2 °C), relative humidity (55 ± 10%) and ad libitum access to food and water. The experimental protocol for this study was reviewed and approved by the Local Ethics Committee. To obtain consistent data, the study was based on the required minimum number of animals and observation time. […] Three rats were used at each time point (n = 3). In total, the research was conducted on 66 animals (n = 33 in the experimental group and n = 33 in the control group).
Elacridar was freshly dissolved in a vehicle at an initial concentration of 20 mg/mL. […] A volume of 80 μL of blood was collected from each rat by cutting off a piece of its tail. The blood samples were collected into heparinized test tubes at the following time points: […], and they were immediately centrifuged at 2880 g for 10 min at 4 °C. The anaesthetized rats (anaesthetized by intramuscular administration of 50 mg/kg ketamine and 10 mg/kg xylazine) were prepared for cisterna magna puncture. The hair over the puncture was removed and the skin was disinfected with alcohol. The animals were placed in a recumbent position with an elevated rear part of the body. The animals’ heads were slightly flexed and immobilized with the operator’s left hand. The space between the occiput rostrally and the atlas (C1) of the spinal column caudally was gently palpated with the left thumb. A 0.7 × 20 G needle with polyethylene tubing (Terumo Poland, Warsaw, Poland) was gently inserted at an approximate angle of 80–90° through the skin with the operator’s right hand into the midsagittal region. […]

[1] = blood plasma, lapatinib 100 mg/kg oral alone (IIL)

AUMC0-t [1]: 138,877.66 ± 11,299.79 ng × h^2/mL
AUMC0-∞ [1]: 404,148.02 ± 215,793.89 ng × h^2/mL
Clapatinib in BP, single rat (lapatinib 100 mg/kg + elacridar, 8 h, listed as Lapatinib): 775 ng/mL
Structure (SMILES): CS(=O)(=O)CCNCc1ccc(-c2ccc3ncnc(Nc4ccc(OCc5cccc(F)c5)c(Cl)c4)c3c2)o1 [lapatinib, N-{3-Chloro-4-[(3-fluorobenzyl)oxy]phenyl}-6-[5-({[2-(methylsulfonyl)ethyl]amino}methyl)-2-furyl]-4-quinazolinamine]
